The list shows a part of the results, in another mix than the full data. Activity calls are given as the source filed them.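 How the source made its calls: active means inhibition above that plate's mean sample inhibition plus 3 SD (cut at about 26% in these data); inactive means the rest.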
Test: ATP-evoked calcium signal inhibitors, parental CHO, primary screen, counter-screen for OX1R antagonist project, cell-based, fluorescence, Fluo-8 calcium dye (AID 463079);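 further: 0% = ATP-challenged DMSO wells and 100% = DMSO wells without ATP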
Conditions: parental CHO-K1, ATP-induced calcium, Fluo-8 fluorescence; at 5.6 µM; stronger effect = higher value
Procedure, shortened: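 Measured by: calcium-sensitive Fluo-8 fluorescence / Test system: CHO parental line / Controls: ATP-challenged DMSO wells low, unchallenged DMSO wells high / Measure: % inhibition / Compound: single nominal dose of 5.6 µM per compound / Replicates: single well per compound, no replicates / Reagent: ATP as calcium-mobilizing challenge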

SMILES | inhibition
CC(=O)Nc1ccc([As](=O)(O)O)c(O)c1 | inactive: -4.46%
CC(=O)Nc1ccc(Oc2c([N+](=O)[O-])cc([N+](=O)[O-])cc2[N+](=O)[O-])cc1 | inactive: 13.9%
Cc1ccccc1CN(C)C(=O)COC(=O)C(O)(c1ccccc1)c1ccccc1 | inactive: -20.5%
C[C@H]1OP(=O)(Oc2ccccc2)C[C@@H]2O[C@@H]21 (some centres undefined) | inactive: -0.64%
C[C@@H]1C=CCP(=O)(Oc2ccccc2)O1 (some centres undefined) | inactive: -1.47%
CC(=O)c1ccc(N2CC2c2ccncc2)cc1 (centres undefined) | inactive: -5.45%
CC(C)(C)C(=O)NC(Sc1ccccc1)C(Cl)(Cl)Cl (centres undefined) | inactive: -16.9%
O=P1(Nc2nc3ccc(Cl)cc3s2)COc2ccccc2O1 (centres undefined) | inactive: -9.51%
CCOc1ccc(C2=NCC(CBr)S2)cc1 (centres undefined) | inactive: -19.1%
CC(NC(=O)COC(=O)C(O)(c1ccccc1)c1ccccc1)c1ccccc1 (centres undefined) | inactive: -10.6%
Cc1ccccc1OP(=O)(Nc1ccccn1)Oc1ccccc1C | inactive: -13.8%
CN(C)C(=O)Oc1noc2ccccc12 | inactive: 4.39%
O=C(OC1CN2CCC1CC2)c1ccccc1 (centres undefined) | inactive: 2.78%
CCC(=O)N1C2C3N(C(=O)CC)C1C1N(C(=O)CC)C(C(N1C(=O)CC)N3C(=O)CC)N2C(=O)CC | inactive: -3.61%
COC(=O)c1cc2c(s1)N=C(c1ccccc1)N(C)P2(=O)N1CCOCC1 (centres undefined) | inactive: -18.4%
Cc1ccc(OP(=O)(Nc2ccccn2)Oc2ccc(C)cc2)cc1 | inactive: -7.18%
CC(=O)NC(SC(=S)N(CC(C)C)CC(C)C)C(Cl)(Cl)Cl (centres undefined) | inactive: -0.78%
c1ccc(-c2nn[nH]n2)c(-c2nn[nH]n2)c1 | inactive: -17.7%
CCOC(=O)NC(Sc1ccccc1)C(Cl)(Cl)Cl (centres undefined) | inactive: -7.51%
Cc1ccc(NP(=O)(Oc2cccc(C)c2)Oc2cccc(C)c2)nc1 | inactive: -12.9%
O=C(NC1CCS(=O)(=O)C1)NP(=S)(Oc1ccccc1)Oc1ccccc1 (centres undefined) | inactive: -3.9%
CCNC(=S)/N=C(\N)N[N+](=O)[O-] | inactive: -9.77%

SMILES | inhibition
O=C(OC1CN2CCC1CC2)c1cccc(Cl)c1 (centres undefined) | inactive: -5.64%
C(Cc1nn[nH]n1)Cc1nn[nH]n1 | inactive: -3.41%
Nc1ccc([As](=O)(O)c2ccc([N+](=O)[O-])cc2)cc1 | inactive: -2.21%
O=[As](O)(c1ccccc1)c1ccc(O)cc1 | inactive: -3.21%
O=[N+]([O-])c1ncn(CCn2cnc([N+](=O)[O-])n2)n1 | inactive: 0.93%
CC(=O)NC(SC(=S)N(C)C)C(Cl)(Cl)Cl (centres undefined) | inactive: -4.03%
O=[N+]([O-])c1ccc(O)c(/C=N/Nc2ccc([N+](=O)[O-])cc2[N+](=O)[O-])c1 | inactive: -0.21%
O=P(Nc1nc2ccccc2s1)(c1ccccc1)c1ccccc1 | inactive: -9.65%
C[C@H]1OP(=O)(Oc2ccccc2)[C@H](O)[C@H](O)[C@H]1N=[N+]=[N-] (some centres undefined) | inactive: -1.35%
CN(C)C1(CNC(=O)c2ccc(Cl)c(S(N)(=O)=O)c2)CCCCC1 | inactive: -6.93%
O=P(Nc1ccccn1)(c1ccc(Br)cc1)c1ccc(Br)cc1 | inactive: -8.78%
c1nnnn1CCn1cnnn1 | inactive: 1.41%
O=P(Nc1nccs1)(c1ccccc1)c1ccccc1 | inactive: -14.6%
CC(C)C(=O)NC(Sc1ccccc1)C(Cl)(Cl)Cl (centres undefined) | inactive: -7.19%
CC1CCN(C(=O)Oc2c(Cl)cc(Cl)c3cccnc23)CC1 | inactive: -23.2%
CC(C)=N/N=C(\N)N[N+](=O)[O-] | inactive: 1.76%
CN(C)C(=O)OCCc1n(C)cc[n+]1C | inactive: -7.57%
CCN(/C(=N/P(=O)(N1CCOCC1)N1CCOCC1)N1CCOCC1)c1ccc(OC)cc1 | inactive: -7.33%
Nc1ccc([As](=O)(O)c2ccc(N)cc2)cc1 | inactive: -0.7%
C[N+]1=C2C=CC=CC=C2SC12C([N+](=O)[O-])=CC([N+](=O)[O-])=C[C-]2[N+](=O)[O-] (centres undefined) | active: 43.3%
Cc1ccc(NP(=O)(Oc2ccccc2)Oc2ccccc2)nc1 | inactive: -16.1%
O=[N+]([O-])c1cc([N+](=O)[O-])c(CCNc2ccccc2)c([N+](=O)[O-])c1 | inactive: 10.9%

SMILES | inhibition
CCc1nc2c(n1)c1c(non1O)c1c2no[n+]1[O-] | inactive: -15.4%
CC(=O)N1C2C3N(C(C)=O)C1C1N(C(C)=O)C(C(N1C(C)=O)N3C(C)=O)N2C(C)=O | inactive: -13%
O=[N+]([O-])c1cccc2n[nH]nc12 | inactive: 0.96%
COc1ccc(C2=NCC(CBr)S2)cc1 (centres undefined) | inactive: -13.3%
O=[N+]([O-])c1cccc(NC2=NCC(CBr)S2)c1 (centres undefined) | inactive: -20.6%
O=[N+]([O-])c1ncn(CCn2ncnc2[N+](=O)[O-])n1 | inactive: 9.99%
CC(C)(C)C(=O)NC(Sc1ccncn1)C(Cl)(Cl)Cl (centres undefined) | inactive: -2.58%
O=C(Nc1cc([As](=O)(O)O)ccc1O)c1ccccc1 | inactive: 5.91%
CCN(N=Nc1nonc1N)c1nonc1N | inactive: 1.43%
O=[N+]([O-])c1cc([N+](=O)[O-])c(CCN2CCOCC2)c([N+](=O)[O-])c1 | inactive: 4.05%
Cc1cc(SC(NC(=O)c2ccc(F)cc2)C(Cl)(Cl)Cl)ncn1 (centres undefined) | inactive: -6.05%
CCOP(=O)(Nc1ccccc1)OCC | inactive: -2.85%
CN(C(=O)Cc1ccc(Cl)c(Cl)c1)[C@H]1CCCC[C@@H]1N1CCCC1 | inactive: -15.2%
Cc1ccc(NP(=O)(Oc2ccccc2F)Oc2ccccc2F)nc1 | inactive: -11.2%
O=P(Nc1nc2ccc(Cl)cc2s1)(c1ccccc1)c1ccccc1 | inactive: 1.31%
CC(=O)Nc1ccc([As](=O)(O)O)cc1 | inactive: -5.85%
O=C(O)c1ccccc1[As](=O)(O)O | inactive: -13.1%
Oc1ccccc1CNc1ccccn1 | inactive: 1.5%
O=C(NC(Sc1ccncn1)C(Cl)(Cl)Cl)c1ccccc1 (centres undefined) | inactive: 4%
Cc1c2non([O-])c-2c(C)[n+](=O)[n+]1[O-] | inactive: -1.24%

— PubChem BioAssay AID463079 (The Scripps Research Institute Molecular Screening Center, 2010)
